# Only a part is listed here, and it is no random draw. Inconclusive results are not listed. A call without a number means that no potency is given here. Calls of active or inactive are those of the source. Calls come from the whole dose curve; as a rule, active = well fitted inhibition curve with a large enough effect; inconclusive = small, poorly fitted or top-dose-only effect, or another doubt; inactive = no such curve, though single readings can be large or run the other way.
# By UniProt entry, the sequences of proteins in these tests, tags left out.
# UniProt P18054, whole entry: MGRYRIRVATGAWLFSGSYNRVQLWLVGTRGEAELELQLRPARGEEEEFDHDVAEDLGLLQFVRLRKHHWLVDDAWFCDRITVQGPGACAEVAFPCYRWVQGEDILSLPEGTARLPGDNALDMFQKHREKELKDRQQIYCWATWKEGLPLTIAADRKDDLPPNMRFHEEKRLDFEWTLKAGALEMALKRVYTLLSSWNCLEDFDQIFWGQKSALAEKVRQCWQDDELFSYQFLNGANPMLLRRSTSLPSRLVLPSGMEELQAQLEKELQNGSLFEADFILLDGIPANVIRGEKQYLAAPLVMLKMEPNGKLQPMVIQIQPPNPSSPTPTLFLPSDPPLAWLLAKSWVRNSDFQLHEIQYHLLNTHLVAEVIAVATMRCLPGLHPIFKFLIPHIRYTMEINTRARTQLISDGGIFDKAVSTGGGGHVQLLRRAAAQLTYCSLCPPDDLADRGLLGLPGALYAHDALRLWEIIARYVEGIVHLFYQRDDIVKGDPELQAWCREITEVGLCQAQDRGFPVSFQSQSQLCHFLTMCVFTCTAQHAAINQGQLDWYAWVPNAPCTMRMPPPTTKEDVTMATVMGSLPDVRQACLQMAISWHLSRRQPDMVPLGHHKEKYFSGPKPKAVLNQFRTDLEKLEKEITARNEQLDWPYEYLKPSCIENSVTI
# Biological target: Polyunsaturated fatty acid lipoxygenase ALOX12 (Homo sapiens) (UniProt P18054)
# Assay: Primary qHTS assay for inhibitors of human arachidonate 12S-lipoxygenase (ALOX12): Round 2
# Settings: purified 12hLO, xylenol orange hydroperoxide absorbance; series mostly up to 108 µM
# Source text: Assay Provider: Theodore R. Holman Ph.D. University of California, Santa Cruz, California Human lipoxygenase 12hLO is a member of the closely related lipoxygenase family of enzymes which catalyze the site-specific oxidation of arachidonic acid to various hormone precursor molecules and as such is a candidate for drug development in a variety of disease areas, such as cancer and inflammation. Inhibition of 12hLO activity was screened by utilizing arachidonic acid as a substrate. The extent of hydroperoxide product formation was measured by a secondary chromogenic reaction in which xylenol orange (XO, Sigma-Aldrich, cat. number 39,818-7) reacts with the ferric ions produced from the reaction between the hydroperoxide and ferrous ions. The Fe (III)-XO complex is characterized with red-shifted absorbance at 560 nm. A purified preparation of human 12hLO was supplied by Dr. Holman laboratory, University of California, Santa Cruz.
# PROTOCOL TABLE SEQUENCE No. (e.g., 1, 2, 3, etc.); […] (e.g., Cells, Incubation, Reagent, etc.); VALUE; DESCRIPTION 1; Enzyme; 3 uL; 150 nM 12hLO enzyme solution dispensed in 1536-well Greiner black, clear bottom plates. 2; Compound; 23 nL; compounds and controls were added. 3; Incubate; 15 min; room temperature. 4; Substrate; 1 uL; 40 uM arachidonic acid (final concentration). 5; Incubate; 30 min; room temperature. 6; Reagent; 4 uL; Fe-XO solution was added to each well. 7; Incubation; 30 min; room temperature 8; Detector; absorbance; Read 1 at 405 nm absorbance using ViewLux (Perkin-Elmer) CCD imager. 9; Detector; absorbance; Read 2 at 573 nm absorbance using ViewLux (Perkin-Elmer) CCD imager. NOTES (numbers refer to sequence above) 1; 150 nM 12hLO (final concentration) in buffer solution (25 mM Hepes, 0.01% Triton X-100, pH 7.0) was dispensed in columns 1, 2, 5-48. Column 1 is neutral (100% activity). Buffer only was dispensed in columns 3 and 4 as no enzyme negative controls. The plates were covered with metal lids with gas-exchange holes. 2; Compounds were pin transferred via a Kalypsys Pin Tool (Wako USA) in column 5-48. Control compound was transferred in column 2, titration of nordihydroguaiaretic acid (NDGA, Sigma-Aldrich, N5023) with top concentration of 20 mM in DMSO then 1:3 dilution in duplicate. Dilution factor of 23 nL into 4 uL final assay volume. 3; Covered assay plates were incubated for 15 min at room temperature. 4; Substrate was added to start the reaction; 40 uM arachidonic acid (Sigma-Aldrich, St. Louis, MO) was dispensed throughout the plate. 6; Chromogenic detection reagent solution (divalent iron/xylenol orange, Fe-XO) was added to each well: 200 uM xylenol orange, 300 uM ferrous ammonium sulfate prepared freshly in 50 mM sulfuric acid. 8, 9; Two absorbance readouts were obtained at 405 nm and at 573 nm using a ViewLux high-throughput CCD plate imager (Perkin-Elmer). The 573 to 405 (Read 2 / Read 1) absorbance ratio was used to compute reaction progress.
# Potency is the fitted concentration of half-maximal effect.
Compound,"activity change, negative = inhibition",Potency
CP(=O)(NC(=O)Nc1ccccc1)Oc1ccccc1 (centres undefined),inactive,–
CCc1ccc(OP(C)(=O)N2CCN(c3ccc([N+](=O)[O-])cc3)CC2)cc1 (centres undefined),inactive,–
Cc1cccc(C)c1OP(C)(=O)Nc1ccc(SC(F)(F)F)cc1 (centres undefined),inactive,–
CP(=O)(Oc1ccccc1)OC(c1ccccc1)C(F)(F)F (centres undefined),inactive,–
CP(=O)(Nc1ccccn1)Oc1ccc(Cl)cc1 (centres undefined),inactive,–
CCOP(C)(=S)SCC(=O)NC(C)C(=O)O (centres undefined),inactive,–
CCOC(=O)c1ccc(NP(C)(=O)Oc2ccc(OC)cc2)cc1 (centres undefined),inactive,–
O=[N+]([O-])c1cc([N+](=O)[O-])c(O)c([N+](=O)[O-])c1.c1ccc(Oc2ccncc2)cc1,–,active: 31.6 µM
COc1ccccc1OP(C)(=O)Nc1ccccc1 (centres undefined),inactive,–
CP(=O)(Nc1ccccc1Br)Oc1ccccc1 (centres undefined),inactive,–
CP(=S)(Nn1cnnc1)Oc1ccccc1 (centres undefined),inactive,–
CC(C)(C)c1ccc(OP(C)(=O)Nc2ccc(SC(F)(F)F)cc2)cc1 (centres undefined),inactive,–
Cc1cccc(C)c1OP(C)(N)=O (centres undefined),inactive,–
O=[N+]([O-])c1ccc2c(c1)C=Nc1ccccc1O2,inactive,–
COc1ccccc1OP(C)(=O)Nc1cc(Cl)ccc1C (centres undefined),inactive,–
COc1ccc(OP(C)(=O)Nc2cccc(F)c2)cc1 (centres undefined),inactive,–
Cc1cc(C)cc(OP(C)(N)=O)c1 (centres undefined),inactive,–
CCOC(=O)c1ccc(NP(C)(=O)Oc2ccccc2)cc1 (centres undefined),inactive,–
COc1ccccc1OP(C)(=O)Nc1ccc(C)cc1 (centres undefined),inactive,–
Cc1ccc(NP(C)(=O)Oc2ccccc2)c(C)c1 (centres undefined),inactive,–
CCN(CC)CCCOC(=O)C(O)(c1ccccc1)c1ccccc1,inactive,–
Cc1cc(C)cc(OP(C)(=O)Nc2ccc(C)cc2C)c1 (centres undefined),inactive,–
CCOC(=O)c1ccc(NP(C)(=O)Oc2cc(C)cc(C)c2)cc1 (centres undefined),inactive,–
COc1ccccc1OP(C)(=O)Nc1cccc(Br)c1 (centres undefined),inactive,–
Cc1cc(C)cc(OP(C)(=O)Nc2ccccn2)c1 (centres undefined),inactive,–

Compound,"activity change, negative = inhibition",Potency
CP(=O)(Nc1cccc(Br)c1)Oc1ccccc1 (centres undefined),inactive,–
O=[N+]([O-])c1cccc([N+](=O)[O-])c1,inactive,–
CC1=NCCc2c1[nH]c1ccccc21.O=[N+]([O-])c1cc([N+](=O)[O-])c(O)c([N+](=O)[O-])c1,inactive,–
O=[N+]([O-])c1cc([N+](=O)[O-])c(Nc2nnnn2CCO)c([N+](=O)[O-])c1,inactive,–
CCCOc1ccc(NP(C)(=O)Oc2ccc(Cl)cc2)cc1 (centres undefined),inactive,–
CP(=O)(Nc1ccc(SC(F)(F)F)cc1)Oc1ccccc1 (centres undefined),inactive,–
COc1ccccc1OP(C)(=O)Nc1c(C)cccc1C (centres undefined),inactive,–
CN1CCCCC1COC(=O)C1(O)c2ccccc2CCc2ccccc21 (centres undefined),inactive,–
O=[N+]([O-])c1cc([N+](=O)[O-])c(-c2cnn(-c3ccccc3)c2)c([N+](=O)[O-])c1,inactive,–
CCOP(=O)(CC)OCC,inactive,–
CCOP(C)(=S)SCC(=O)NC(C)(CC)C(=O)O (centres undefined),inactive,–
CP(=O)(Nc1ccc(SC(F)(F)F)cc1)Oc1ccc(F)cc1 (centres undefined),inactive,–
O=[N+]([O-])c1cc([N+](=O)[O-])c(C(F)(F)F)c([N+](=O)[O-])c1O,inactive,–
Cc1ccccc1NP(C)(=O)Nc1ccccc1C,inactive,–
CP(=O)(Nc1ccc2c(c1)OCCO2)Oc1ccccc1 (centres undefined),inactive,–
COc1ccc(NP(C)(=O)Oc2ccccc2OC)cc1 (centres undefined),inactive,–
CN(C)CCOC(=O)C(O)(c1ccccc1)C1CCCCC1 (centres undefined),inactive,–
COc1ccc(OP(C)(=O)Nc2cccc(Br)c2)cc1 (centres undefined),inactive,–
Cc1c(C(c2ccc3c(c2)OCO3)c2c(C)n(C)n(-c3ccccc3)c2=O)c(=O)n(-c2ccccc2)n1C.O=[N+]([O-])c1cc([N+](=O)[O-])c(O)c([N+](=O)[O-])c1,inactive,–
O=[N+]([O-])c1ccc(OP2(=O)COCCO2)cc1 (centres undefined),inactive,–
COc1ccc(OP(C)(=O)Nc2ccc(SC(F)(F)F)cc2)cc1 (centres undefined),inactive,–
CCOC(=O)c1ccc(NP(C)(=O)Oc2ccc(F)cc2)cc1 (centres undefined),inactive,–
Cc1cccc([N+](=O)[O-])c1[N+](=O)[O-],inactive: -4.92% [at 22.9 µM],–
CP(=O)(Nc1ccccc1)Oc1ccc(F)cc1 (centres undefined),inactive,–
CCOP(=O)(CC)Oc1ccc([N+](=O)[O-])cc1 (centres undefined),inactive: -6.43% [at 22.9 µM],–

Compound,"activity change, negative = inhibition",Potency
CN(C)CCOC(=O)C(O)(c1ccccc1)C1CCCC1 (centres undefined),inactive,–
COc1ccc(OP(C)(=O)Nc2ccccn2)cc1 (centres undefined),inactive,–
COc1ccccc1OP(C)(=O)Nc1ccc(Br)cc1 (centres undefined),inactive,–
CCc1ccc(OP(C)(=O)O)cc1,inactive,–
CP(=O)(Nc1ccccn1)Oc1ccccc1 (centres undefined),inactive,–
COc1ccccc1OP(C)(=O)Nc1ccc(C)cc1C (centres undefined),inactive,–
Cc1c(NP(C)(=O)Oc2ccc(C(C)C)cc2)c(=O)n(-c2ccccc2)n1C (centres undefined),inactive,–
O=[N+]([O-])c1cc([N+](=O)[O-])c(Nc2ccccn2)c([N+](=O)[O-])c1,inactive,–
COc1ccc(OP(C)(=O)Nc2ccccc2Br)cc1 (centres undefined),inactive,–
COc1ccccc1OP(C)(=O)Nc1ccc(C)c(C)c1 (centres undefined),inactive,–
Cc1cc(C)cc(OP(C)(=O)Nc2cccc(C(F)(F)F)c2)c1 (centres undefined),inactive,–
CP(=O)(Nc1ccc(Cl)cc1Cl)Oc1ccccc1 (centres undefined),inactive,–
CP(=O)(OCCOc1ccccc1)OCCOc1ccccc1,inactive,–
CP(=O)(OC12CC3CC(CC(C3)C1)C2)OC12CC3CC(CC(C3)C1)C2,inactive,–
CCOC(=O)c1ccc(NP(C)(=O)Oc2ccc(Cl)cc2)cc1 (centres undefined),inactive,–
Nc1ccc2c(ccc3cccnc32)n1.O=[N+]([O-])c1cc([N+](=O)[O-])c(O)c([N+](=O)[O-])c1,inactive,–
CP(=O)(Oc1ccccc1)N1CCOC1=O (centres undefined),inactive,–
CCc1ccc(OP(C)(=O)Nc2cccnc2)cc1 (centres undefined),inactive,–
COc1ccccc1OP(C)(=O)Nc1c(C)n(C)n(-c2ccccc2)c1=O (centres undefined),inactive,–
O=C(OCCCN1CCCC1)C(O)(c1ccccc1)C1CCCCC1 (centres undefined),inactive,–
COc1ccc(OP(C)(=O)Nc2ccc(Br)cc2)cc1 (centres undefined),inactive,–
CN(C)C(=O)c1c([N+](=O)[O-])cc([N+](=O)[O-])cc1[N+](=O)[O-],inactive,–
CP(=O)(Nc1ccc(Cl)cc1)Oc1ccc(F)cc1 (centres undefined),inactive,–
COc1ccccc1OP(C)(=O)Nc1ccccc1Br (centres undefined),inactive,–
